Like-named read-outs stand apart in the source and are kept apart here.

By UniProt entry, the sequences of proteins in these tests, tags left out. Residues count along the entry.
UniProt P37173, 23-166: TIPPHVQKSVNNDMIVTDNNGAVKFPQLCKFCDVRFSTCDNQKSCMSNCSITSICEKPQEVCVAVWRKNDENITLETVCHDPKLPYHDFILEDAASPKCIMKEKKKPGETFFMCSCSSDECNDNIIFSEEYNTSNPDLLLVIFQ

The text below walks through data of publication PMC5551644.

Assay [1] has as its target T1, TGF-β2TM, variant of TGF-β2 bearing K25R, I92V, and K94R substitutions (human).
T1 sequence (P61812 303-414 with K25R I92V K94R, looked up): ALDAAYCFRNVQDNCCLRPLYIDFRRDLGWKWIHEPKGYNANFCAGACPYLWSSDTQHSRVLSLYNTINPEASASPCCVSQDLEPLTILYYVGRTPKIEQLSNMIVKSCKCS
Briefly: SPR.

In assay [2] the target is TGF-β2TM/BG_(O-ZP) binary complex (human | rat) (UniProt P26342). Briefly: ITC.
The target in assay [3] is T1, TGF-β2TM, variant of TGF-β2 bearing K25R, I92V, and K94R substitutions (human). Put plainly: SPR. This is another data set of the same source.
Assay [4] concerns the target TGF-β2/BGO complex (human | rat) (UniProt P26342). Put plainly: SPR.
Assay [5] concerns the target TGF-β2/BG_(O-ZP) complex (human | rat) (UniProt P26342). Put plainly: SPR.
Assay [6] deals with TGF-β2TM/BG_(O-ZP) binary complex (human | rat) (UniProt P26342). Put plainly: SPR.
The target of assay [7] is TGF-β2TM/BGO complex (human | rat) (UniProt P26342). Put plainly: SPR.
In assay [8] the target is T1, TGF-β2TM, variant of TGF-β2 bearing K25R, I92V, and K94R substitutions (human). Put plainly: SPR. This is another data set of the same source.
Assay [9] has the same target. Briefly: SEC.
For assay [10] the target is unchanged. Put plainly: SEC-MALS.

As for “TGF-β type II receptor extracellular domain (from UniProt P37173 23-166)”, the Kd in assay [1] came out at 145 nM; in assay [2], 510 nM; in assay [3], 129 nM; in assay [4], 130 nM; in assay [5], 1070 nM; in assay [6], 43 nM. Besides, the Kd came out at 30 nM in [7] and 148 nM in [8]. Also, in [2], the dH is -29.3 kJ mol^–1. For the same substance, the stoichiometry N in assay [2] stood at 1.04 sites. In addition, the stoichiometry N (TβRII per TGF-β2TM homodimer) in assay [9] and in [10] was 2 each time.
